Bioassay records from PubChem BioAssay.
The list is not random: actives were taken first. Their share in the collection is about 16%.
TDP1 cell CPT – growth inhibition of DT40 Tdp1-/-;hTDP1 cells with camptothecin (screen for TDP1 inhibitors). Potency, µM (highest dose often 46.2 µM), without a hit: top-dose activity change, negative = growth inhibition, usual class: inhibitors. actives 12% (n = 420,000). chicken DT40 Tdp1-/-;hTDP1 cells + 20 nM CPT, ATP luminescence, 48 h; note: potency is the fitted concentration of half-maximal effect; % is set by controls: 0 for no effect and ±100 for the full control effect; nearly all actives have a fitted effect of over 55% in size
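Chicken DT40 Tdp1-/- cells stably complemented with human TDP1 were seeded at 400 cells/well in medium containing 20 nM camptothecin, exposed to pin-transferred compounds, and grown at 37 °C for at least 48 hr. Viability was read as ATP luminescence.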
TDP1 cell noCPT – qHTS for Inhibitors of human tyrosyl-DNA phosphodiesterase 1 (TDP1): qHTS in cells in absence of CPT; DT40 Tdp1-/- hTDP1 cells, no CPT, ATP luminescence, 48 h; Potency, µM (series often up to 46.2 µM), for inactives: top-dose activity change, negative = growth inhibition, usual class: inhibitors; actives 15% (n = 420,000); AID 686978, 2013; note: potency is the fitted concentration of half-maximal effect; % is set by controls: 0 for no effect and ±100 for the full control effect; nearly all actives have a fitted effect of over 55% in size
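Luminescent ATP content (CellTiter-Glo) served as the growth readout. Knockout chicken DT40 cells expressing human TDP1 were exposed to compounds without camptothecin for a minimum 48 hr at 37 °C.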
uPA generation – blocks generation of uPA at the cell surface; cell surface uPA generation assay, qHTS; Potency, µM (series often up to 38.3 µM), without a hit: at the top dose activity change, negative = inhibition, hits mostly inhibitors; actives 0.31% (n = 330,000); AID 540303; active = well fitted inhibition curve with a large enough effect; inconclusive = small, poorly fitted or top-dose-only effect; inactive = no such curve, though single readings can be large or run the other way; tested in mouse RAW 264.7 cells; note: potency is the fitted concentration of half-maximal effect; % is set by controls: 0 for no effect and ±100 for the full control effect; nearly all actives have a fitted effect of over 55% in size
miR-21 FLuc – raises the signal of a miR-21 reporter | HeLa miR-21 FLuc reporter, luciferase, 48 h | Potency, µM (doses to about 38.3 µM), without a hit: at the top dose reporter change, positive = more light | 340,000 tested, under 10 active | AID 2288; active = well fitted rising curve with a large enough effect; inconclusive = small, poorly fitted or top-dose-only effect; inactive = no such curve, though single readings can be large or run the other way;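 note: % of control where 0% means no effect; miR-21 action dims this reporter so a rising signal means less miR-21 action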
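Luminescence from a firefly luciferase reporter carrying a miR-21 binding site downstream, stably expressed under a CMV promoter in HeLa cells that make miR-21 endogenously, reports miRNA modulation after 48 h compound exposure up to approximately 40uM final.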
TDP1 inh – blocks human tyrosyl-DNA phosphodiesterase 1; recombinant TDP1, AlphaScreen DNA substrate cleavage; Potency, µM (top dose mostly 130 µM), inactives show at the highest dose activity change, negative = inhibition, hits mostly inhibitors; actives 0.28% (n = 350,000); AID 485290; note: potency is the fitted concentration of half-maximal effect; % is set by controls: 0 for no effect and ±100 for the full control effect; nearly all actives have a fitted effect of over 40% in size
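Enzyme-compound mixtures sat 15 min at room temperature, followed by a 5 min reaction with 15 nM final substrate and 10 min with AlphaScreen beads. Recombinant human Tdp1 was used at 1 nM final.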
* marks the source's active call; other numbers are inactive results; ? = inconclusive; nt = not tested or not shown; [ ] = dose if it differs, or a comment. Unless noted, calls come from the whole dose curve; as a rule, active = well fitted curve in the direction sought with a large enough effect; inconclusive = small, poorly fitted or top-dose-only effect, or another doubt; inactive = no such curve, though single readings can be large; an effect the other way counts as inactive or inconclusive.

| No. | Compound | TDP1 cell CPT | TDP1 inh | uPA generation |
| --- | --- | --- | --- | --- |
| 1 | Cc1ccc(NC(=O)c2ccc([N+](=O)[O-])s2)cc1S(=O)(=O)N1CCOCC1 | 16µM* | -1% | -5% |
| 2 | COc1ccc(C)cc1NC(=O)c1ccccc1NS(=O)(=O)c1ccc(Cl)s1 | 8.2µM* | 2% | ? |
| 3 | Cc1ccc(NC(=O)C2=COCCO2)cc1S(=O)(=O)N1CCOCC1 | 7% | 2% | -2% |
| 4 | CCOC(=O)c1c(NC(=O)CSc2nnnn2C)sc(CC)c1C | ? | 8% | -14% |
| 5 | COC(=O)CSc1nc2sc3c(c2c(=O)n1-c1ccccc1)C(C)CCC3 (configuration not stated) | -11% | nt | nt |
| 6 | COc1ccc(NC(=S)N2CCCN(Cc3cccc(Cl)c3)C2)cc1 | ? | 8% | -2% |
| 7 | COc1cccc(NC(=S)N2CCCN(Cc3ccc(F)cc3)C2)c1 | -10% | 5% | 5% |
| 8 | CC(=O)COC(=O)C1=NN(c2ccccc2)C(=O)CC1 | -1% | nt | 1% |
| 9 | Cc1cc(C(=O)NCCN2Cc3ccccc3OC(c3ccccc3F)C2)no1 (configuration not stated) | -4%[9.04 µM] | nt | nt |
| 10 | CCn1nc(C)cc1C(=O)NCCN1Cc2ccccc2OC(c2ccccc2F)C1 (configuration not stated) | ? | nt | nt |

| No. | miR-21 FLuc | TDP1 cell noCPT |
| --- | --- | --- |
| 1 | nt | 16µM* |
| 2 | ? | 6.5µM* |
| 3 | nt | -28% |
| 4 | -10% | -28% |
| 5 | -8% | -6% |
| 6 | -2% | 16µM* |
| 7 | -4% | 23µM* |
| 8 | 0% | -2% |
| 9 | nt | -10% |
| 10 | nt | 16µM* |

New compounds follow:
| No. | Compound | TDP1 cell CPT | TDP1 inh | uPA generation |
| --- | --- | --- | --- | --- |
| 11 | Cc1cnc(NC(=O)CSc2nnc(-c3ccncc3)n2C2CCCCC2)s1 | -29% | 4% | 7% |
| 12 | NNC(=O)c1ccc(Cn2cc(Br)cn2)o1 | 20% | 1% | 2% |
| 13 | Cc1ccc(NC(=O)c2ccc(Cn3cc(Br)cn3)o2)cc1 | ? | -12% | -3% |
| 14 | CCc1cccc(C)c1NC(=S)NCc1ccc2[nH]c(C)cc2c1 | 23µM* | 11% | 2% |
| 15 | Cc1ccccc1NC(=S)NCc1cccn1C | 3% | 8% | 7% |
| 16 | Cc1ccc(Cl)cc1NC(=S)NCc1cccn1C | ? | 8% | -5% |
| 17 | CCc1cccc(C)c1NC(=S)NCc1cccn1C | 21µM* | 6% | 7% |
| 18 | CCOC(=O)C1=CN(C(C)C)CCC1=O | -3% | nt | 9% |
| 19 | C=C1C(=O)OCC2C(C(=O)O)=CC3C(C)C(C)=CC123 (configuration not stated) | 18µM* | nt | nt |
| 20 | COc1ccc(N2CCN(C(=O)c3cccn3-c3nnc(N4CCCC4)s3)CC2)cc1 | ? | 0% | nt |

| No. | miR-21 FLuc | TDP1 cell noCPT |
| --- | --- | --- |
| 11 | 3% | -21% |
| 12 | -23% | -1% |
| 13 | -8% | 21µM* |
| 14 | 8% | 18µM* |
| 15 | 2% | -1% |
| 16 | -9% | 18µM* |
| 17 | 1% | ? |
| 18 | nt | -7% |
| 19 | nt | 18µM* |
| 20 | -5% | ? |

Following part:
| No. | Compound | TDP1 cell CPT | TDP1 inh | uPA generation |
| --- | --- | --- | --- | --- |
| 21 | COc1cccc(N2CCN(C(=O)c3ccc4nc(N5CCCCC5)sc4c3)CC2)c1 | ? | 4% | 20% |
| 22 | COc1cccc(N2CCN(C(=O)c3cccn3-c3nnc(N4CCCCC4)s3)CC2)c1 | 15µM* | 3% | nt |
| 23 | Cc1ccc(Cl)cc1N1CCN(C(=O)c2cccn2-c2nnc(N3CCCC3)s2)CC1 | 12µM* | 11% | nt |
| 24 | CCC(CC)c1nc(C#N)c(NC(C)c2ccccc2)o1 (configuration not stated) | -19% | 3% | -1% |
| 25 | COc1c(C)cc(Br)cc1C(=O)Nc1ccc(Cc2ccncc2)cc1 | ? | 3% | 0% |
| 26 | CC(C)(C)c1ccc(C(=O)NNC(=O)C(=O)N2CCCCC2)cc1 | -28% | 4% | -12% |
| 27 | Cc1ccc(Cn2c(=N)c(C(=O)NCC3CCCO3)cc3c(=O)n4ccccc4nc32)cc1 (configuration not stated) | ? | 10% | -2% |
| 28 | N=c1c(C(=O)NCC2CCCO2)cc2c(=O)n3ccccc3nc2n1Cc1ccccc1 (configuration not stated) | -12% | 0% | -2% |
| 29 | N=c1c(C(=O)NCC2CCCO2)cc2c(=O)n3ccccc3nc2n1Cc1ccc(Cl)cc1 (configuration not stated) | 10µM* | 1% | ? |
| 30 | N=c1c(C(=O)NCC2CCCO2)cc2c(=O)n3ccccc3nc2n1Cc1ccccc1Cl (configuration not stated) | 1.5µM* | 1% | -5% |

| No. | miR-21 FLuc | TDP1 cell noCPT |
| --- | --- | --- |
| 21 | -41% | 16µM* |
| 22 | -4% | ? |
| 23 | 2% | 15µM* |
| 24 | 11% | -22% |
| 25 | 6% | ? |
| 26 | -33% | -14% |
| 27 | -4% | ? |
| 28 | 1% | 1% |
| 29 | 2% | 16µM* |
| 30 | 3% | 1.3µM* |

Additional compounds follow.
| No. | Compound | TDP1 cell CPT | TDP1 inh | uPA generation |
| --- | --- | --- | --- | --- |
| 31 | COc1ccc(Cn2c(=N)c(C(=O)NCC3CCCO3)cc3c(=O)n4ccccc4nc32)cc1 (configuration not stated) | ? | nt | 3% |
| 32 | Cc1ccc(Cn2c(=N)c(C(=O)NCC3CCCO3)cc3c(=O)n4cccc(C)c4nc32)cc1 (configuration not stated) | 7.3µM* | 5% | -10% |
| 33 | Cn1c(=O)c([N+](=O)[O-])c(Cl)c2ccccc21 | 2.6µM* | 1% | -3% |
| 34 | Cn1c(=O)c([N+](=O)[O-])c(-n2cnc3ccccc32)c2ccccc21 | ? | nt | -11% |
| 35 | Cc1nccn1-c1c([N+](=O)[O-])c(=O)n(C)c2ccccc12 | 8% | -6% | -9% |
| 36 | O=C(COC(=O)CCC(=O)c1cccs1)Nc1ncc(Cl)cc1Cl | -5% | 0% | -3% |
| 37 | CC#CCNCc1ccccc1 | -11% | 1% | -1% |
| 38 | Cc1ccc(C)c(CN2C(=O)c3ccccc3S(=O)(=O)c3ccc(C(=O)N4CCN(c5ccccc5)CC4)cc32)c1 | -2% | 5% | nt |
| 39 | CC(=O)Oc1ccc(C23c4ccccc4C2(OC(C)=O)c2cc(OC(C)=O)ccc23)cc1 (configuration not stated) | 23µM* | nt | -13% |
| 40 | CCCCCOC(=O)Nc1ccc(S(=O)(=O)Nc2cccc([N+](=O)[O-])c2)cc1 | -21% | 11% | 3% |

| No. | miR-21 FLuc | TDP1 cell noCPT |
| --- | --- | --- |
| 31 | 1% | ? |
| 32 | -1% | 9.2µM* |
| 33 | 13% | 4.6µM* |
| 34 | 0% | 21µM* |
| 35 | 5% | -21% |
| 36 | -3% | -8% |
| 37 | 0% | -14% |
| 38 | 3% | -16% |
| 39 | nt | ? |
| 40 | 1% | ? |

A few values from above:
Result of #39 in uPA generation: -13%
Result of #35 in TDP1 cell noCPT: -21%

Carrying on:
| No. | Compound | TDP1 cell CPT | TDP1 inh | uPA generation |
| --- | --- | --- | --- | --- |
| 41 | Cc1ccc(Cc2nnc(SCC(=O)Nc3c(C)cccc3C)[nH]c2=O)cc1 | ? | 6% | 4% |
| 42 | Cc1ccc(Cc2nnc(SCC(=O)Nc3ccccc3)[nH]c2=O)cc1 | ? | 0% | -9% |
| 43 | O=C(O)CCc1ccc(S(=O)(=O)Nc2ccccc2C(=O)NCCc2ccccc2)cc1 | -2% | 6% | 3% |
| 44 | COc1ccc(-c2cn3c(n2)sc2cc(C(=O)Nc4cccc(OC)c4)ccc23)cc1 | ? | 1% | nt |
| 45 | O=C(NC1CCCCC1)c1ccc2c(c1)sc1nc(-c3ccc(F)cc3)cn12 | 13µM* | 5% | nt |
| 46 | O=C(NC1CCCCCC1)c1ccc2c(c1)sc1nc(-c3ccc(F)cc3)cn12 | ? | -3% | nt |

| No. | miR-21 FLuc | TDP1 cell noCPT |
| --- | --- | --- |
| 41 | nt | 6.5µM* |
| 42 | nt | -3% |
| 43 | -60% | -14% |
| 44 | -8% | ? |
| 45 | 10% | 15µM* |
| 46 | -6% | 6.5µM* |

Ordered by count of non-hydrogen atoms (descending): part of the list above
| No. | Compound | TDP1 cell CPT | TDP1 inh | uPA generation |
| --- | --- | --- | --- | --- |
| 38 | Cc1ccc(C)c(CN2C(=O)c3ccccc3S(=O)(=O)c3ccc(C(=O)N4CCN(c5ccccc5)CC4)cc32)c1 | -2% | 5% | nt |
| 11 | Cc1cnc(NC(=O)CSc2nnc(-c3ccncc3)n2C2CCCCC2)s1 | -29% | 4% | 7% |
| 7 | COc1cccc(NC(=S)N2CCCN(Cc3ccc(F)cc3)C2)c1 | -10% | 5% | 5% |

| No. | miR-21 FLuc | TDP1 cell noCPT |
| --- | --- | --- |
| 38 | 3% | -16% |
| 11 | 3% | -21% |
| 7 | -4% | 23µM* |
